# The entries are a selection whose mix differs from that of the whole data set. Records with an inconclusive call do not appear. A call without a number means that no potency is given here. The source made the active and inactive calls. The call rests on the fitted dose curve; in most records, active means well fitted inhibition curve with a large enough effect; inconclusive means small, poorly fitted or top-dose-only effect, or effect the other way; inactive means flat fitted curve, though single readings scatter.
# Amino acid sequences for entries named in this document (tags omitted).
# UniProt P10636, whole entry, looked up: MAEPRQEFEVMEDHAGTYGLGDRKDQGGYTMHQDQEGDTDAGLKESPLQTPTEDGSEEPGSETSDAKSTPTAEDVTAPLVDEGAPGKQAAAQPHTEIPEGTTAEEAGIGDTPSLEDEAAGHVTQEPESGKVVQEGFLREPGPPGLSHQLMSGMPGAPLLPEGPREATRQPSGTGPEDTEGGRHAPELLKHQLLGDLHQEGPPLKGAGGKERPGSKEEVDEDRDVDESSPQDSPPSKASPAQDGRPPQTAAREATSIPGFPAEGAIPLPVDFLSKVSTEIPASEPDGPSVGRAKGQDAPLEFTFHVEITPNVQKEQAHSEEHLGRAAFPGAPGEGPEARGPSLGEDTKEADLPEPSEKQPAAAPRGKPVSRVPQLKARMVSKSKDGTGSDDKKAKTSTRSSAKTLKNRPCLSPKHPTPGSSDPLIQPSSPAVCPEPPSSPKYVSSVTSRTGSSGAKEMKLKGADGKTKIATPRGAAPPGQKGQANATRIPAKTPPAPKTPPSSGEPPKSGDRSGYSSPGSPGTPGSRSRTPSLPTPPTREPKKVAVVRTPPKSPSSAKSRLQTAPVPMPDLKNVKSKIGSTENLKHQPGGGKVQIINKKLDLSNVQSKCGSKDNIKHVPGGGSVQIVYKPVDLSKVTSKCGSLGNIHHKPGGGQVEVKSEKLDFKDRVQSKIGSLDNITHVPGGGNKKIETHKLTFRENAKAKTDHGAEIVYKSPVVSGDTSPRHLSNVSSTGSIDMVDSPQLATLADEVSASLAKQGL
# Biological target: Microtubule-associated protein tau (Homo sapiens) (UniProt P10636)
# Assay: qHTS for Inhibitors of Tau Fibril Formation, Fluorescence Polarization; further: nearly all actives have a fitted effect of over 55% in size
# Details: K18 P301L tau heparin fibrillization, Alexa594 FP, 6 h; series mostly up to 57.7 µM
# Procedure, shortened: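 Compound effects on tau fibrillization are measured by Alexa 594 fluorescence polarization (ex 555, em 632 nm). K18 P301L tau is used at 15 uM with 0.24 uM labeled tracer, and 20 uM heparin induces aggregation over 6 hr at 37 C.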
# Potency means the concentration at half of the fitted maximal effect.
row,SMILES,Potency
1,CC(C)/C=N\N=C(\N)N[N+](=O)[O-],inactive
2,CN(CCCl)Cc1cc(Cl)c(NC2=NCCN2)c(Cl)c1,inactive
3,CCOP(=O)(Nc1ccc(C)cn1)OCC,inactive
4,O=P1(Nc2ccccn2)COc2ccccc2OC1,inactive
5,Clc1n[nH]nc1-c1nn[nH][15n]1,inactive
6,CC(C)(C)C(=O)NC(Sc1ncccn1)C(Cl)(Cl)Cl (stereo unspecified),inactive
7,Nc1cccc2c([As](=O)(O)O)cccc12,inactive
8,Cc1ccc(NCCc2c([N+](=O)[O-])cc([N+](=O)[O-])cc2[N+](=O)[O-])cc1,inactive
9,COc1cc(C2NCCC3(OCCO3)C2(C)C)cc(OC)c1OC (stereo unspecified),inactive
10,CCOP(=O)(Nc1cccc2ccccc12)OCC,inactive
11,COc1cc(C(=O)NCC2(N3CCOCC3)CCCCC2)cc(Cl)c1OC(C)C,inactive
12,O=[As](O)(O)c1cccnc1,inactive
13,O=C(OC1CN2CCC1CC2)c1ccc(Cl)cc1 (stereo unspecified),inactive
14,CN(C(=O)Cc1ccc(Cl)c(Cl)c1)[C@@H]1CC[C@]2(CCCO2)C[C@H]1N1CCCC1,inactive
15,O=[As](O)(c1cccc(O)c1)c1cccc(O)c1,inactive
16,Cc1cccc(OCC(=O)OC2CN3CCC2CC3)c1 (stereo unspecified),inactive
17,NC(=O)Nc1ccc([As](=O)(O)O)cc1,inactive
18,O=[N+]([O-])CC(O)c1ccc([N+](=O)[O-])cc1 (stereo unspecified),inactive
19,O=[N+]([O-])c1ccc2c(c1)nnn2O,inactive
20,CCOP1(=S)c2c(C)nn(CCC#N)c2N=C(c2ccc(F)cc2)N1C (stereo unspecified),inactive
21,CN(C(=O)Cc1ccccc1)[C@@H]1CC[C@]2(CCCO2)C[C@H]1N1CCCC1,inactive
22,CS(=O)(=O)c1cc([N+](=O)[O-])c2no[n+]([O-])c2c1,active: 14.1 µM
23,CCOP1(=S)c2c(C)nn(CCC#N)c2N=C(c2ccccc2F)N1C (stereo unspecified),inactive
24,O=P(Nc1nccs1)(c1ccccc1)c1nc2ccccc2s1 (stereo unspecified),inactive

row,SMILES,Potency
1,O=P(Nc1nccs1)(Oc1ccccc1)Oc1ccccc1,inactive
2,O=C(O)COc1ccc([As](=O)(O)O)cc1[N+](=O)[O-],inactive
3,Nc1ccccc1[As](=O)(O)c1ccccc1,inactive
4,COC(=O)c1cc2c(s1)N=C(c1ccccc1)N(C)P2(=O)N1CCOCC1 (stereo unspecified),inactive
5,Cc1ccc(OP(=O)(Nc2ccccn2)Oc2ccc(C)cc2)cc1,inactive
6,CC(=O)NC(SC(=S)N(CC(C)C)CC(C)C)C(Cl)(Cl)Cl (stereo unspecified),inactive
7,CN(C(=O)Cc1ccc(Cl)c(Cl)c1)[C@@H]1CCCC[C@@H]1N1CCCC1,inactive
8,CCC(=O)N1C2C3N(C(=O)CC)C1C1N(C(=O)CC)C(C(N1C(=O)CC)N3C(=O)CC)N2C(=O)CC,inactive
9,Cc1ccccc1OP(=O)(Nc1ccccn1)Oc1ccccc1C,inactive
10,CN(C)C(=O)Oc1noc2ccccc12,inactive
11,O=c1c2cc([N+](=O)[O-])ccc2[nH]c2c([N+](=O)[O-])cc([N+](=O)[O-])cc12,inactive
12,O=C(NC1CCS(=O)(=O)C1)NP(=S)(Oc1ccccc1)Oc1ccccc1 (stereo unspecified),inactive
13,CCNC(=S)/N=C(\N)N[N+](=O)[O-],inactive
14,c1ccc(-c2nn[nH]n2)c(-c2nn[nH]n2)c1,inactive
15,CCOC(=O)NC(Sc1ccccc1)C(Cl)(Cl)Cl (stereo unspecified),inactive
16,Cc1ccc(NP(=O)(Oc2cccc(C)c2)Oc2cccc(C)c2)nc1,inactive
17,C[C@@H]1C=CCP(=O)(Oc2ccccc2)O1 (stereo partly specified),inactive
18,C[C@H]1OP(=O)(Oc2ccccc2)C[C@@H]2O[C@@H]21 (stereo partly specified),inactive
19,CC(=O)Nc1ccc([As](=O)(O)O)c(O)c1,inactive
20,CC(=O)Nc1ccc(Oc2c([N+](=O)[O-])cc([N+](=O)[O-])cc2[N+](=O)[O-])cc1,inactive
21,O=P1(Nc2nc3ccc(Cl)cc3s2)COc2ccccc2O1 (stereo unspecified),inactive
22,CCOc1ccc(C2=NCC(CBr)S2)cc1 (stereo unspecified),inactive
23,CC(C)(C)C(=O)NC(Sc1ccccc1)C(Cl)(Cl)Cl (stereo unspecified),inactive
24,O=P(Nc1nccs1)(c1ccccc1)c1ccccc1,inactive

row,SMILES,Potency
1,CC(C)C(=O)NC(Sc1ccccc1)C(Cl)(Cl)Cl (stereo unspecified),inactive
2,c1nnnn1CCn1cnnn1,inactive
3,O=[N+]([O-])c1ncn(CCn2cnc([N+](=O)[O-])n2)n1,inactive
4,CC(=O)NC(SC(=S)N(C)C)C(Cl)(Cl)Cl (stereo unspecified),inactive
5,O=[As](O)(c1ccccc1)c1ccc(O)cc1,inactive
6,Nc1ccc([As](=O)(O)c2ccc([N+](=O)[O-])cc2)cc1,inactive
7,C(Cc1nn[nH]n1)Cc1nn[nH]n1,inactive
8,O=C(OC1CN2CCC1CC2)c1cccc(Cl)c1 (stereo unspecified),inactive
9,O=P(Nc1ccccn1)(c1ccc(Br)cc1)c1ccc(Br)cc1,inactive
10,O=P(Nc1nc2ccccc2s1)(c1ccccc1)c1ccccc1,inactive
11,C[C@H]1OP(=O)(Oc2ccccc2)[C@H](O)[C@H](O)[C@H]1N=[N+]=[N-] (stereo partly specified),inactive
12,CN(C(=O)Cc1ccccc1)[C@H]1CC[C@@]2(CCCO2)C[C@@H]1N1CCCC1,inactive
13,CC(C)(C)C(=O)NC(Sc1ccncn1)C(Cl)(Cl)Cl (stereo unspecified),inactive
14,O=[N+]([O-])c1ncn(CCn2ncnc2[N+](=O)[O-])n1,inactive
15,O=[N+]([O-])c1cccc(NC2=NCC(CBr)S2)c1 (stereo unspecified),inactive
16,O=C(O)CNc1ccc([As](=O)(O)O)cc1,inactive
17,O=C(Nc1cc([As](=O)(O)O)ccc1O)c1ccccc1,inactive
18,Nc1ccc([As](=O)(O)c2ccc(N)cc2)cc1,inactive
19,C[N+]1=C2C=CC=CC=C2SC12C([N+](=O)[O-])=CC([N+](=O)[O-])=C[C-]2[N+](=O)[O-] (stereo unspecified),inactive
20,CCN(/C(=N/P(=O)(N1CCOCC1)N1CCOCC1)N1CCOCC1)c1ccc(OC)cc1,inactive
21,CC(C)=N/N=C(\N)N[N+](=O)[O-],inactive
22,CN(C)C(=O)OCCc1n(C)cc[n+]1C,inactive
23,CC1CCN(C(=O)Oc2c(Cl)cc(Cl)c3cccnc23)CC1,inactive
24,CC(=O)C1=CCCC2CCC1N2 (stereo unspecified),inactive

row,SMILES,Potency
1,CC(=O)N1C2C3N(C(C)=O)C1C1N(C(C)=O)C(C(N1C(C)=O)N3C(C)=O)N2C(C)=O,inactive
2,O=[N+]([O-])c1cccc2n[nH]nc12,inactive
3,Cc1ccc(NP(=O)(Oc2ccccc2)Oc2ccccc2)nc1,inactive
4,O=[N+]([O-])c1cc([N+](=O)[O-])c(CCNc2ccccc2)c([N+](=O)[O-])c1,inactive
5,CCc1nc2c(n1)c1c(non1O)c1c2no[n+]1[O-],inactive
6,CC(C)CC(=O)NC(Sc1ccc(Cl)cc1)C(Cl)(Cl)Cl (stereo unspecified),inactive
7,Nc1cc(N)c2nonc2c1[N+](=O)[O-],inactive
8,Oc1ccccc1CNc1ccccn1,inactive
9,Cc1c2non([O-])c-2c(C)[n+](=O)[n+]1[O-],active: 28.2 µM
10,O=C(NC(Sc1ccncn1)C(Cl)(Cl)Cl)c1ccccc1 (stereo unspecified),inactive
11,NC(=O)c1cc([N+](=O)[O-])cc([N+](=O)[O-])c1N,inactive
12,Cc1ccc(N/C(=N/P(=O)(N2CCOCC2)N2CCOCC2)N2CCOCC2)cc1,inactive
13,COc1ccccc1OP(=O)(Nc1ccc(C)cn1)Oc1ccccc1OC,inactive
14,Cc1ccc(OP(=O)(Nc2nccs2)Oc2ccc(C)cc2)cc1,inactive
15,Clc1ccc(Cl)c(NC2=NCC(CBr)S2)c1 (stereo unspecified),inactive
16,CN1CCCC(OC(=O)C(c2ccccc2)c2ccccc2)C1 (stereo unspecified),inactive
17,CCN(N=Nc1nonc1N)c1nonc1N,inactive
18,Nc1cccc2ccc([As](=O)(O)O)cc12,inactive
19,CC(=O)Nc1ccc([As](=O)(O)O)cc1,inactive
20,O=P(Nc1nc2ccc(Cl)cc2s1)(c1ccccc1)c1ccccc1,inactive
21,CCOP(=O)(Nc1ccccc1)OCC,inactive
22,Cc1cc(SC(NC(=O)c2ccc(F)cc2)C(Cl)(Cl)Cl)ncn1 (stereo unspecified),inactive
23,CN(C(=O)Cc1ccc(Cl)c(Cl)c1)[C@H]1CCCC[C@@H]1N1CCCC1,inactive
24,Cc1ccc(NP(=O)(Oc2ccccc2F)Oc2ccccc2F)nc1,inactive
